Results published in PMC7281375, “Therapeutic Targeting of Pancreatic Cancer via EphA2 Dimeric Agonistic Agents” (Pharmaceuticals, 2020).

Chains of the proteins cited; added tags and fusions are not shown. Residues count along the entry.
UniProt P29317, 27-200: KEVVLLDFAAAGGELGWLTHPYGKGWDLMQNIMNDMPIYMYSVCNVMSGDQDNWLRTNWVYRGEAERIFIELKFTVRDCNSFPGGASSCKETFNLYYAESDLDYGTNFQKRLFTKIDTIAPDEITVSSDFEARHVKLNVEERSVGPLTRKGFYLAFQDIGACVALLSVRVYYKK
UniProt P29317, 28-206 limits assumed: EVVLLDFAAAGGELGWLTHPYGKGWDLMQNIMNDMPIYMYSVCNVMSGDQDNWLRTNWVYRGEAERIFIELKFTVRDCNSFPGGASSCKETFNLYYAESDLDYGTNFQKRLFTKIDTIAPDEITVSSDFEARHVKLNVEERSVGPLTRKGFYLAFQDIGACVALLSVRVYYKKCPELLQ

How the values were obtained:
[1] = target: recombinant 6xHis-EphA2-LBD (EphA2 ligand binding domain) (UniProt P29317)
EphA2 receptor = test: EphA2 degradation, Western blot of HCT116 cell lysates; format: cell-based; details: HCT116 cells, 10 μM agent, 2.5 h
[2] = N-terminal Tyr replaced with 2-(3-chloro-4-fluorophenoxy)acetic acid; cited from earlier work
EphA2-LBD = target: T1, EphA2-LBD (Homo sapiens, UniProt P29317); test: 2D [15N,1H]-sofast HSQC NMR with 15N-labeled EphA2-LBD; format: binding; details: EphA2-LBD 20 μM, stoichiometric amount of agent
T1 construct: recombinant 6xHis-EphA2-LBD and fluorescent europium-conjugated anti-6xHis antibody were added to each well
Description: As mentioned above, our attempts to crystallize dimeric agents in complex with EphA2-LBD have thus far failed. However, we could express and purify ^15N-labeled EphA2-LBD and have conducted comparative NMR experiments with monomers and dimers (Figure 2). […] While the line broadening is widespread, some resonances seem more affected and presented differences in chemical shifts. Unfortunately, the resonance assignments for EphA2-LBD are not available, but we speculate that these localized changes may reflect the formation, perhaps transiently, of the dimer interface.
Figure 2 2D NMR [^15N,^1H] spectra with ^15N-labeled EphA2-LBD.
Molecular modeling studies were conducted using Sybyl-X 1.2 (Certara, St. Louis, MO, USA) and the X-ray structures of 135E2 in complex with EphA2-LBD (PDB ID 6B9L) and of ephrinA1 in complex with the ectodomain of EphA2 (PDB ID 3MX0). […] Subsequently, a C-terminal Gly-Lys linker was modeled in an extended conformation to 135H11, and covalently linked to a second 135H11 from the other unit of the biological unit dimer. The complex was further energy minimized (partial charges were assigned using the Gasteiger-Huckel method). […] HSQCs were measured on a 700 MHz Avance Bruker instrument equipped with a cryo-probe and automated sample changer. […]

135C12 (dimer of 135B12) (peptide)
IC50 [1]: 300 nM

135D1 (dimer of 135B12) (peptide)
IC50 [1]: 400 nM

CC(C)[C@H](NC(=O)[C@H](CO)NC(=O)[C@H](CC(=O)O)NC(=O)[C@@H]1CCCN1C(=O)[C@H](Cc1ccc(O)cc1)NC(=O)[C@H](C)NC(=O)[C@H](CO)NC(=O)[C@@H](N)Cc1ccc(O)cc1)C(=O)N1CCC[C@H]1C(=O)N[C@@H](Cc1ccccc1)C(=O)N[C@@H](CCCNC(=N)N)C(=O)N1CCC[C@H]1C(=O)NCC(=O)NCCCC[C@H](NC(=O)CNC(=O)[C@@H]1CCCN1C(=O)[C@H](CCCNC(=N)N)NC(=O)[C@H](Cc1ccccc1)NC(=O)[C@@H]1CCCN1C(=O)[C@@H](NC(=O)[C@H](CO)NC(=O)[C@H](CC(=O)O)NC(=O)[C@@H]1CCCN1C(=O)[C@H](Cc1ccc(O)cc1)NC(=O)[C@H](C)NC(=O)[C@H](CO)NC(=O)[C@@H](N)Cc1ccc(O)cc1)C(C)C)C(N)=O [135C11]
total EphA2 level (anti-EphA2 blot) (EphA2 receptor): partial decrease of the receptor

CC(C)[C@H](NC(=O)[C@H](CO)NC(=O)[C@H](CC(=O)O)NC(=O)[C@@H]1CCCN1C(=O)[C@H](Cc1ccc(O)cc1)NC(=O)[C@H](C)NC(=O)[C@H](CO)NC(=O)[C@@H](N)Cc1ccc(O)cc1)C(=O)N1CCC[C@H]1C(=O)N[C@@H](Cc1ccccc1)C(=O)N[C@@H](CCCNC(=N)N)C(=O)N1CCC[C@H]1C(=O)NCCC(=O)NCCCC[C@H](NC(=O)CCNC(=O)[C@@H]1CCCN1C(=O)[C@H](CCCNC(=N)N)NC(=O)[C@H](Cc1ccccc1)NC(=O)[C@@H]1CCCN1C(=O)[C@@H](NC(=O)[C@H](CO)NC(=O)[C@H](CC(=O)O)NC(=O)[C@@H]1CCCN1C(=O)[C@H](Cc1ccc(O)cc1)NC(=O)[C@H](C)NC(=O)[C@H](CO)NC(=O)[C@@H](N)Cc1ccc(O)cc1)C(C)C)C(N)=O [135C12]
total EphA2 level (anti-EphA2 blot) (EphA2 receptor): partial decrease of the receptor

CC(C)[C@H](NC(=O)[C@H](CO)NC(=O)[C@H](CC(=O)O)NC(=O)[C@@H]1CCCN1C(=O)[C@H](Cc1ccc(O)cc1)NC(=O)[C@H](C)NC(=O)[C@H](CO)NC(=O)[C@@H](N)Cc1ccc(O)cc1)C(=O)N1CCC[C@H]1C(=O)N[C@@H](Cc1ccccc1)C(=O)N[C@@H](CCCNC(=N)N)C(=O)N1CCC[C@H]1C(=O)NCCCC(=O)NCCCC[C@H](NC(=O)CCCNC(=O)[C@@H]1CCCN1C(=O)[C@H](CCCNC(=N)N)NC(=O)[C@H](Cc1ccccc1)NC(=O)[C@@H]1CCCN1C(=O)[C@@H](NC(=O)[C@H](CO)NC(=O)[C@H](CC(=O)O)NC(=O)[C@@H]1CCCN1C(=O)[C@H](Cc1ccc(O)cc1)NC(=O)[C@H](C)NC(=O)[C@H](CO)NC(=O)[C@@H](N)Cc1ccc(O)cc1)C(C)C)C(N)=O [135D1]
total EphA2 level (anti-EphA2 blot) (EphA2 receptor): partial decrease of the receptor

CC(C)[C@H](NC(=O)[C@H](CO)NC(=O)[C@H](CC(=O)O)NC(=O)[C@@H]1CCCN1C(=O)[C@H](Cc1ccc(O)cc1)NC(=O)[C@H](C)NC(=O)[C@H](CO)NC(=O)COc1ccc(F)c(Cl)c1)C(=O)N1CCC[C@H]1C(=O)N[C@@H](Cc1ccccc1)C(=O)N[C@@H](CCCNC(=N)N)C(=O)N1CCC[C@H]1C(N)=O [135E2]
plasma stability [2]: dramatically improve plasma stability

CC(C)[C@H](NC(=O)[C@H](CO)NC(=O)[C@H](CC(=O)O)NC(=O)[C@@H]1CCCN1C(=O)[C@H](Cc1ccc(O)cc1)NC(=O)[C@H](C)NC(=O)[C@H](CO)NC(=O)COc1ccc(F)c(Cl)c1)C(=O)N1C[C@H](O)C[C@H]1C(=O)N[C@@H](Cc1ccc(Cl)cc1)C(=O)N[C@@H](CCCNC(=N)N)C(=O)N1CCC[C@H]1C(N)=O [135G3]
changes in amide chemical shifts in 2D [15N,1H]-sofast HSQC (EphA2-LBD): Large changes in chemical shifts
